{"sequences": {"note": "Chains of the proteins cited; added tags and fusions are not shown.", "UniProt P14842, whole entry": "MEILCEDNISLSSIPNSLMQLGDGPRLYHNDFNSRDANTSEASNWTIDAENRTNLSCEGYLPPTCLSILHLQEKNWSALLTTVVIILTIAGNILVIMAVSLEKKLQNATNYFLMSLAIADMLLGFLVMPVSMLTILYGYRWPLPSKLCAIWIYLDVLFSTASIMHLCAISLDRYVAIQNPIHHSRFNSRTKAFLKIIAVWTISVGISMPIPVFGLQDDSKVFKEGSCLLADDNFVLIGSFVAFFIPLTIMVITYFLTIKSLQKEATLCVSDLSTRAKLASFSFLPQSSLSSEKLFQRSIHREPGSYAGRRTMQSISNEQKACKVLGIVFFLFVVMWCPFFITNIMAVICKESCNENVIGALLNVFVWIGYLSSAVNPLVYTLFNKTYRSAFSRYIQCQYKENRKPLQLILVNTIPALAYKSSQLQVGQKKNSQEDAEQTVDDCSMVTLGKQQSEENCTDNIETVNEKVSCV"}, "source": "patent US7622476B2", "about": "“Methods of using 1-allyl ergot alkaloid derivatives to treat migraines” (priority 2002, dated 2009)", "origin": "cited, not measured here", "biological_target": "T1, 5-HT2A receptors (Rattus norvegicus, UniProt P14842)", "T1 construct": "characterizing 5-HT2A receptors in rat's caudal arteries; from tissue; host or cells: rat anterior caudal artery segments, endothelium stripped (male Wistar rats)", "conditions": "reference compounds marked *; values from H. Pertz (1996) Planta Med. 62, pp. 387-392; cited from earlier work", "data": [{"smiles": "C[C@@H]1C[C@@H]2c3cccc4[nH]cc(c34)C[C@H]2N(C)C1", "note": "[Festuclavine]", "values": [{"measurement": "5-HT2A pA2 value", "value": 6.63}]}]}
